# Test results as given in patent US20070197430A1, “Conjugates And Therapeutic Uses Thereof” (priority 2004, published 2007).
# Key:
# Bcl-2 ΔC22 = Bcl-2 ΔC22 (UniProt P10415); assay: Biacore solution competition; competitor: immobilised mouse wtBimBH3 26-mer; column head prints Bcl-w ΔC22, the text Bcl-2 ΔC22
# [1] = target: GST tagged Bcl w delta C29 protein (UniProt Q92843); assay: AlphaScreen with GST detection; competitor: biotinylated Bim BH3-26 peptide
# [2] = target: 6-His tagged Bcl w delta C10 protein (UniProt Q92843); assay: Biacore solution competition; competitor: immobilised mouse wtBimBH3 26-mer
substance,measurement,setting,value
hsBimL/Bod (81-106) (peptide),pIC50,Bcl-2 ΔC22,8.59
same,pIC50,[1],10.00
same,pIC50,[2],8.22

# pIC50: −log10 of the molar value.
